Test results reported in patent US6284746A, “Inclusion complexes of taxol or taxotere or taxus extract formed with cyclodextrins, its preparation and use” (Chinoin, Ltd., priority 1993, dated 2001).

Assay: Solubilization of taxol with sulfopropyloxy-β-cyclodextrin (Example 3)
Format: physicochemical
Settings: 25° C., in water, neutral pH
Text: Taxol was solubilized in the presence of sulfopropyloxy-β-cyclodextrinin the same way as described in example 2.

For `CC(=O)O[C@H]1C(=O)[C@@]2(C)[C@H]([C@H](OC(=O)c3ccccc3)[C@]3(O)C[C@H](OC(=O)[C@H](O)[C@@H](NC(=O)c4ccccc4)c4ccccc4)C(C)=C1C3(C)C)[C@]1(OC(C)=O)CO[C@@H]1C[C@@H]2O` (relative stereo) [taxol, [2aR-[2aα, 4β; 4αβ,6β,9α(αR*,βS*),11α-12α,12aα, 12bα]]-β-(Benzoylamino)-α-hydroxybenzene-propanoic acid 6,12-b-bis (acetyloxy)-12-(benzoyloxy)-2a,3,4,4a, 5,6,9,10,11,12,12a,12b-dodecahydro-4,11-dihyroxy-4a,8,13,13-tetramethyl-5-oxo-7,11-methano-1H-cyclodeca[3,4]-benz-[1,2-b]oxet-9-yl ester], the “decomposition of taxol in solution” value was “found to decompose to unknown products”.
